Holding throughout (assay): fluorescence polarisation
In experiment [1] the target is canonical nucleosome (X. laevis histone octamer on Widom 601 DNA) (X. laevis).
For experiment [2] the target is unchanged. The source holds these as a separate data set.
For experiment [3] the target is unchanged. The source holds these as a separate data set.

Like-named read-outs stand apart in the source and are kept apart here.

Regarding “CHD1 Arg1072Ala/Arg1074Ala mutant (residues 1-1327) (from UniProt O14646 1-1327) (enzyme)”, the values for the fold reduction in affinity against wild-type CHD1 in experiment [1], in experiment [2] and in experiment [3] were 1.8 fold, 1.2 fold and 1.7 fold, respectively.

These data come from publication PMC12126155.
